Source: patent US8309577B2, “Quinuclidine compounds as α-7 nicotinic acetylcholine receptor ligands” (Bristol-Myers Squibb Company, priority 2008, dated 2012)
Read-outs that look alike come from different tables or passages of the source.

Sequences of proteins named here, by UniProt entry; tags and fusion partners are left off. Residues count along the entry.
UniProt Q05941, 23-502 limits assumed: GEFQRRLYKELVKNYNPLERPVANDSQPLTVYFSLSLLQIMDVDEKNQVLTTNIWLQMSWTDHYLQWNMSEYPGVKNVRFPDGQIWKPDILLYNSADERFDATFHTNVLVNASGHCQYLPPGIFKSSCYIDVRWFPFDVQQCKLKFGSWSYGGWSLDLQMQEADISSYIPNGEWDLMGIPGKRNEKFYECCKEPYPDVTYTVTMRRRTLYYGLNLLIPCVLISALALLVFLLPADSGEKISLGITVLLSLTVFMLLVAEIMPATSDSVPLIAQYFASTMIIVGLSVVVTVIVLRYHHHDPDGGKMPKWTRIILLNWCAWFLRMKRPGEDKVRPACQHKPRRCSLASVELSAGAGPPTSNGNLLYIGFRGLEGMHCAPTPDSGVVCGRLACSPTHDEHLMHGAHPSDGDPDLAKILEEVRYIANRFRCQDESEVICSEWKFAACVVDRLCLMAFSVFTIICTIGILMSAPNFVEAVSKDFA

Biological target: α-7 nicotinic acetylcholine receptor channel expressed in HEK 293 cells (Rattus norvegicus, UniProt Q05941)
Experiment: Ca2+-sensitive fluorescence-based FLIPR assay, α7 nicotinic ACh receptor channel function (agonist)
Type: cell-based
[1] = read-out: FLIPR α7 activity rating (EC50), Table 1, agonist Ca2+ flux

Row | SMILES | EC50 (read-out: FLIPR α7 (EC50), Table 1, agonist Ca2+ flux) [nM] | EC50 [1] [nM]
1 | Brc1cnc(NC2=NC[C@@]3(CN4CCC3CC4)O2)nc1 | 4 | < 100
2 | COc1cc2sc(NC3=NCC4(CN5CCC4CC5)O3)nc2cc1Cl (stereo not shown) |  | 1000 to 100000
3 | Brc1ccc2nc(NC3=NC[C@@]4(CN5CCC4CC5)O3)ccc2c1 |  | 100 to 1000
